{"sequences": {"note": "Chains of the proteins cited; added tags and fusions are not shown. Lines headed by an entry give the natural chain unless they say otherwise; changes in a name come on top.", "UniProt P41146": "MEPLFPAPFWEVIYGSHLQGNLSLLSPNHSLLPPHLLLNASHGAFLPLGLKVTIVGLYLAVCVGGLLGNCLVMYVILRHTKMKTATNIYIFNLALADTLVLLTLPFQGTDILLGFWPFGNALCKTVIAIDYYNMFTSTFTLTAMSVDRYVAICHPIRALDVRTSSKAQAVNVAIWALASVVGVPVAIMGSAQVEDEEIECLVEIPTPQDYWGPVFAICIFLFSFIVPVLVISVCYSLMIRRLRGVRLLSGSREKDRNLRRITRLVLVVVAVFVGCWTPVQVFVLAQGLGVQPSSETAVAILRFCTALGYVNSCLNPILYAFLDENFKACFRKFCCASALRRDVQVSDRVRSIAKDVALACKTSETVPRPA"}, "source": "patent US8530494B2", "about": "“Buprenophine analogs” (dated 2013)", "key": {"rats": {"test_system": "rats", "experiment": "Assessment of respiratory depression, arterial blood gas analysis", "details": "for sO2 (oxygen saturation in blood samples), post hoc significance vs. water: 30 mg/kg SC"}, "ORL-1": {"biological_target": "ORL-1 (Homo sapiens (Human), UniProt P41146)", "details": "read-out: IC50 ORL-1 (partial agonist); Wnendt et al. 1999; cited from earlier work"}}, "note": "pIC50: −log10 of the molar value."}
{"molecule": "CN1CC[C@]23c4c5ccc(O)c4O[C@H]2[C@@H](O)C=C[C@H]3[C@H]1C5", "values": [{"measurement": "oxygen tension, oxygen saturation and pH in blood samples", "setting": "rats; rats given effective doses", "result": "significantly decreased"}, {"measurement": "sO2 (oxygen saturation in blood samples), post hoc significance vs. water", "setting": "rats; rats, 1 hour", "result": "*** (“***” = statistically significant, p < 0.001 vs. water group)"}, {"measurement": "sO2 (oxygen saturation in blood samples), post hoc significance vs. water", "setting": "rats; rats, 3 hours", "result": "*** (“***” = statistically significant, p < 0.001 vs. water group)"}, {"measurement": "sO2 (oxygen saturation in blood samples), post hoc significance vs. water", "setting": "rats; rats, 5 hours", "result": "ns"}, {"measurement": "sO2 (oxygen saturation in blood samples), post hoc significance vs. water", "setting": "rats; rats, 24 hours", "result": "ns"}, {"measurement": "sO2 (oxygen saturation in blood samples), post hoc significance vs. water", "setting": "rats; rats, Baseline", "result": "ns"}]}
{"molecule": "COc1ccc2c3c1O[C@H]1[C@@]4(OC)CC[C@@]5(C[C@@H]4COCc4ccccc4)[C@@H](C2)N(CC2CC2)CC[C@]315", "values": [{"measurement": "respiratory depression", "setting": "rats; rats, doses up to 20 mg/kg", "result": "did not induce respiratory depression"}]}
{"molecule": "7-benzylidenenaltrexone", "values": [{"measurement": "pIC50", "setting": "ORL-1", "result": 5.00}]}
